Measurements published in ChEMBL document CHEMBL1135549, “Oxygenated metabolites of anandamide and 2-arachidonoylglycerol: conformational analysis and interaction with cannabinoid receptors, membrane transporter, and fatty acid amide hydrolase” (J Med Chem, 2002).

The chains behind the UniProt entries cited, without tags or fusion partners.
UniProt P20272, whole entry: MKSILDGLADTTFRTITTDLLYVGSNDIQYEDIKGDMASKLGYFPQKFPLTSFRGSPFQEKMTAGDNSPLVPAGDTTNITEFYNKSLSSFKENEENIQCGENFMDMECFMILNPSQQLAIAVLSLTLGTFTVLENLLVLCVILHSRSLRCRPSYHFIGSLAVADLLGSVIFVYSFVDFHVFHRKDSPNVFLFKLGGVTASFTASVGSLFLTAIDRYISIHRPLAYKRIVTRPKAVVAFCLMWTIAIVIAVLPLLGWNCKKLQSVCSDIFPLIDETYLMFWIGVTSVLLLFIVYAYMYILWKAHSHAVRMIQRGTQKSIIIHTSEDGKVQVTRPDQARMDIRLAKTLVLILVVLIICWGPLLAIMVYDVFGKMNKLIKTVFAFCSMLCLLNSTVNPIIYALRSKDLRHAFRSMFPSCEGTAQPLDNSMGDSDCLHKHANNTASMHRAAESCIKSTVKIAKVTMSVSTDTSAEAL

Molecular target: Cannabinoid receptor 1 (Rattus norvegicus, UniProt P20272)
Assay: Displacement of [3H]CP-55940 from rat forebrain membrane which expresses Cannabinoid receptor 1 in the presence of PMSF
Procedure, shortened: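 Male Wistar rat forebrain membranes, stored at -80 °C. Rapid filtration assay with [3H]CP-55,940 and 50 μg membrane protein in 50 mM Tris·HCl, 2 mM Tris·EDTA, 3 mM MgCl2, 5 mg/mL BSA, pH 7.4, with 50 μM PMSF (final) added fresh. Incubated 1 h at 30 °C. Nonspecific binding with 10 μM AEA. Ki by nonlinear regression using a saturation-derived Kd.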

CCCCC/C=C\C/C=C\C/C=C\C/C=C\CCCC(=O)OC(CO)CO [2-ARACHIDONOYLGLYCEROL]
Ki: 100 nM
